Values of other authors in patent US6599878B2, “Superoxygenating blood substitutes based on hemoglobin and dihydropyidine compositions” (priority 1992, dated 2003).

Settings: Vasey et al.; SNP 50.0 μg/kg/min or […]30 minutes; cited from earlier work

sodium nitroprusside
whole blood cyanide: approximately 1.8 mg/L
